scFv variants of Ab-91 (heavy chain) against a SARS-CoV-2 spike peptide

Target peptide (SARS-CoV-2 spike, HR2 region): PDVDLGDISGINAS

Ab-91 is the parent antibody, in scFv form: VL, then a 15-residue (Gly4Ser)3 linker, then VH. The light chain is unchanged in all variants.
VL: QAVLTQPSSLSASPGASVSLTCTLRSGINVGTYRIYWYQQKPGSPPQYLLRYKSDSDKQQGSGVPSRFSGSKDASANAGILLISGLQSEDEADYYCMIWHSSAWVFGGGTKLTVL
VH: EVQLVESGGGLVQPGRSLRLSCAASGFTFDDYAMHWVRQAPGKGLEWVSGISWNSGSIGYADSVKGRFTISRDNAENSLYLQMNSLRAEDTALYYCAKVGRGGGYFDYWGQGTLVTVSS

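The parent was found by panning a naive human phage display library on the peptide. In library AAYL51, one, two or three CDR residues were substituted; doubles and triples were drawn at random. AlphaSeq pools MATa yeast showing the antibodies with MATalpha yeast showing the peptide. After mating in shaken culture at 30 °C for 16 h, diploids were selected and their barcode pairs sequenced. Scores were corrected for input abundance and mapped to Kd with protein pairs of known affinity run in the same pool. Each pool was mated in three replicate cultures.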

Substitutions are numbered in sequence along the VH above, starting at 1 (not Kabat).
Every variant below is changed at S55 of the VH (sequential numbering).
Affinities are written as log10 Kd with Kd in nM; a lower number is a better binder.
A mean of the replicates is given; it leaves out those without a signal.
"nd" marks a missing value. The strain was present, yet no cells mated with the target were sequenced in that replicate, which points to weak or no binding.
Parent in this assay: reference entry 1.86, copy in this library 0.88.

changes,"log10 Kd, replicates","log10 Kd (nM), mean"
S55C/A61H/G103S,4.85 / nd / nd,4.85
A33Q/S55G/D107S,nd / 4.63 / nd,4.63
G26T/S55F/F106T,4.82 / nd / nd,4.82
S52M/S55R/D62K,nd / 5.07 / nd,5.07
D30C/S55M,5.70 / 6.67 / nd,6.18
G26C/N54E/S55V,3.71 / nd / nd,3.71
N54A/S55C/K65C,4.85 / 4.95 / 5.39,5.06
S55Q/I58W/Y105M,nd / nd / nd,nd
M34A/S55F/V99L,nd / nd / nd,nd
F27R/S52M/S55K,nd / nd / nd,nd
S55L/V99K/G103P,nd / 4.64 / nd,4.64
S55N,3.09 / nd / nd,3.09
F27K/S55R/D107L,nd / 4.13 / nd,4.13
G26L/S55F/G100N,nd / nd / nd,nd
S55H/Y60P/V64P,4.85 / nd / 4.54,4.70
F29Q/S55F/Y60A,nd / nd / nd,nd
S55H/G103N,nd / nd / nd,nd
D31W/S55K/K65V,2.65 / nd / nd,2.65
N54S/S55E/Y108N,nd / nd / nd,nd
S55G/G102Q/Y108P,nd / nd / nd,nd
N54E/S55K/S57P,4.26 / nd / nd,4.26
D30E/S55Y/Y105M,nd / nd / 5.28,5.28
D30W/S55T/S57G,4.80 / nd / 5.03,4.91
S55C/I58T/G59H,nd / nd / nd,nd
M34N/S55D/V99S,4.46 / 5.07 / nd,4.77
S55I/D62I,nd / nd / nd,nd
G26E/S55M/D107R,3.50 / nd / nd,3.50
S55V/G103W/Y105H,5.15 / nd / nd,5.15
S55E/K65Y,1.88 / 1.97 / 1.48,1.78
T28R/S55H/G103H,nd / nd / nd,nd
S55R/D107R/Y108T,nd / nd / nd,nd
G26V/S55D/S57T,3.99 / 6.36 / 5.23,5.20
S52Q/S55C/G103R,nd / nd / nd,nd
N54S/S55P,3.46 / 4.90 / 3.95,4.10
H35V/S55A/Y105L,5.52 / 4.63 / nd,5.08
F29M/A33W/S55C,nd / nd / 3.65,3.65

For reference, 3 entries of the list once more:

{"changes": "A33Q/S55G/D107S", "log10 Kd, replicates": "nd / 4.63 / nd", "log10 Kd (nM), mean": "4.63"}
{"changes": "S55H/Y60P/V64P", "log10 Kd, replicates": "4.85 / nd / 4.54", "log10 Kd (nM), mean": "4.70"}
{"changes": "M34A/S55F/V99L", "log10 Kd, replicates": "nd / nd / nd", "log10 Kd (nM), mean": "nd"}

As a blank, each scFv also met three strains without target: over library AAYL51, 21% of these pairings were detected, typically at 4.54 and seldom below 3.26.

The measurements come from Engelhart et al. 2022 (doi:10.1038/s41597-022-01779-4) through the FLAb antibody collection.